Measured values from patent US20150140123A1, “Protein expression analyses for identifying genotoxic compounds” (Merck Patent GmbH, priority 2012, published 2015).

Tested on: HepG2 cells
Conditions: human, 48 h
Protocol: HepG2 cells (Order No. HB-8065, Lot. 58483209, ATCC, Manassas, USA) were cultured in DMEM/F12 with L-Glutamine and 15 mM Hepes supplemented with 10% (v/v) FBS, 1% (v/v) penicillin (10 kU/ml)/streptomycin (10 mg/ml) solution, 0.1% (v/v) gentamicin (50 mg/ml), and 1 mM sodium pyruvate at 37° C. and 5% CO2 in culture flasks. Depending on the experiment, an appropriate number of cells were seeded onto plates after detaching of the cells using trypsin and cells were cultured at 37° C. and 5% CO2 for 24 h prior to treatment. All experiments were performed three times with cells of passages 4-20.
Cells were seeded onto black Poly-D-Lysin coated 96-well-plates (BD Biocoat, Franklin Lakes, USA) (0.02×10^6 cells/well) and left 24 h for adherence and then treated with test compounds at a maximum concentration of 1 mM which is recommended by the ICH S2(R1) guideline (EMA, 2011). […]
After treatment, cells were rinsed with PBS (Gibco Invitrogen, Karlsruhe, Germany), and then stained with 10 μM CellTracker Green 5-Chloromethylfluorescein Diacetate (CMFDA) (Invitrogen, Karlsruhe, Germany) in cell culture media for 30 min. […] After an incubation of 1 h, followed by two additional washing steps with 0.05% Tween 20, cells were washed with PBS and finally PBS was added and cells were measured.
Image acquisition was performed on the ArrayScan VTI HCS Reader (Cellomics, Pittsburgh, USA) using a 20× objective. […]

CC[C@H]1OC(=O)[C@H](C)[C@@H](O[C@H]2C[C@@](C)(OC)[C@@H](O)[C@H](C)O2)[C@H](C)[C@@H](O[C@@H]2O[C@H](C)C[C@H](N(C)C)[C@H]2O)[C@](C)(O)C[C@@H](C)C(=O)[C@H](C)[C@@H](O)[C@]1(C)O [Erythromycin stearate]
CMFDA +S9 highest conc. <50% cytotox. over control: 125 µM | SCC +S9 highest conc. <50% cytotox. over control: 125 µM
